pEC50: −log10 of the molar value.

Protein sequences, listed by entry. Tags and fused reporters are not part of them.
UniProt Q86WV6, whole entry H232R: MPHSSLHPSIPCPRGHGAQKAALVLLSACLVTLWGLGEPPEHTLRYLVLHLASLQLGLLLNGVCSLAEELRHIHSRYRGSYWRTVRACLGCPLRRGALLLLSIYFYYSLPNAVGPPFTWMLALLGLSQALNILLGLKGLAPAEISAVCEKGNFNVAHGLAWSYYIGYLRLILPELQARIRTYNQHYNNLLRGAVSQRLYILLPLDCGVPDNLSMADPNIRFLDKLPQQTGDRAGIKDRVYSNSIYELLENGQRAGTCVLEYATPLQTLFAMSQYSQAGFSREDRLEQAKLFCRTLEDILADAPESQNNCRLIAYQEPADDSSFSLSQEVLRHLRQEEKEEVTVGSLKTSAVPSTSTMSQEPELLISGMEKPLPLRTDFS

The target in this assay is T1, human wild type STING (WT STING) (Homo sapiens, UniProt Q86WV6, H232R).
T1 construct: host or cells: 293T cells (ATCC CRL-3216), stably double transfected with pUNO1-hSTING-WT and pGL64.27-4×ISRE
The assay is described as follows: 293T WT STING standard reporter assay. It is filed as cell-based. As to conditions: 293T WT STING EC50, 293T wtSTING-FL cells, no digitonin, 7 hours; ISRE firefly luciferase. The text has this:
Two complementary oligonucleotides of the sequence […] […] […] […] […] The oligonucleotides were mixed in equal molar amounts, hybridized, and cleaved by restriction endonucleases HindIII (cat. #. R0104S, NEB, Ipswich, USA) and BglII (cat. #R0144S, NEB, Ipswich, USA). Ultimately, they were ligated into plasmid pGL4.27 (cat. #E6651, Promega, Madison, USA) linearized with the same enzymes. As result the sequence with four ISRE sites was placed upstream of the minimum promoter of firefly luciferase reporter gene.
After 5 minutes incubation at room temperature (RT), 250 μL of the mixture was added dropwise to the cells in one well. Cells were incubated 36 hours at 37° C. with 5% CO2, and then detached with 0.05% Trypsin and 0.22 g/L EDTA (both cat. #L0941, Biowest, Riverside, USA).
Transfected cells were seeded onto poly-D-lysine coated six well plates at density 50,000 cells per 1 cm^2 in DMEM medium with high glucose containing 10% heat inactivated FBS, 30 μg/mL blasticidin (cat. #ant-b1-05, InvivoGen, San Diego, USA), 0.06 mg/ml Penicillin G and 0.1 mg/ml Streptomycin Sulfate (both cat. #. L0018, Biowest, Riverside, USA). The medium was replenished every 3-4 days until visible colonies of cells resistant to blasticidin were formed.
Blasticidin resistant cells stably expressing WT STING were further transfected with pGL64.27-4×ISRE plasmid following the same procedure as described above. […] Homogeneous culture of stably double transfected cells was prepared by limiting dilution of cells in 96 well plates and wells with cells were selected that originated from a single cell.
The medium was removed the next day and three-fold serial dilutions of compounds in 100 μl medium were added to the cells. The plates were incubated for 7 hours at 37° C. with 5% CO2. Next 50 μl of the medium was removed from wells, and 30 μl of ONE-Glo™ Luciferase Assay System reagent (cat. #E6120, Promega, Madison, USA) was added to each well. Luminescence was read on Synergy H1 (Biotek, Winooski, USA).
In general terms: Reporter assays use an easily measured gene product as a stand-in for the process of interest.
In general, pEC50 refers to the EC50 on a negative log10 scale, so that one unit is a factor of ten. On to `CC(C)(C)C(=O)OCSP1(=O)OC[C@H]2O[C@@H](n3cnc4c(N)ncnc43)[C@H](F)[C@@H]2OCP(=O)(O)OC[C@H]2O[C@@H](n3cnc4c(N)ncnc43)[C@H](F)[C@@H]2O1` (single isomer, unassigned) [Compound 32a], for which the pEC50 was 6.15. The value for `CCCCCCCCCCCC(=O)OCSP1(=O)OC[C@H]2O[C@@H](n3cnc4c(N)ncnc43)[C@H](F)[C@@H]2OCP(=O)(O)OC[C@H]2O[C@@H](n3cnc4c(N)ncnc43)[C@H](F)[C@@H]2O1` (single isomer, unassigned) [Compound 31a] was 7.40; that for `CC(C)(C)C(=O)OCOc1ccc(C(=O)OCSP2(=O)OC[C@H]3O[C@@H](n4cnc5c(N)ncnc54)[C@H](F)[C@@H]3OCP(=O)(O)OC[C@H]3O[C@@H](n4cnc5c(N)ncnc54)[C@H](F)[C@@H]3O2)cc1` (stereo partly drawn) [Compound 35b, {[(1R,6R,8R,9R,10R,16R,18R,19R)-8,18-bis(6-amino-9H-purin-9-yl)-9,19-difluoro-13-hydroxy-3,13-dioxo-2,4,7,11,14,17-hexaoxa-3λ^5,13λ^5-diphosphatricyclo[14.3.0.0^6,^10]nonadecan-3-yl]sulfanyl}methyl 4-{[(2,2-dimethylpropanoyl)oxy]methoxy}benzoate] was 5.72; that for `CCCCCCCCCCCCCCCC(=O)OCSP1(=O)OC[C@H]2O[C@@H](n3cnc4c(N)ncnc43)[C@H](F)[C@@H]2OCP(=O)(O)OC[C@H]2O[C@@H](n3cnc4c(N)ncnc43)[C@H](F)[C@@H]2O1` (single isomer, unassigned) [Compound 38b] was 7.52.

`CCCCCCCCCCCCCCCC(=O)OCSP1(=O)OC[C@H]2O[C@@H](n3cnc4c(N)ncnc43)[C@H](F)[C@@H]2OCP(=O)(O)OC[C@H]2O[C@@H](n3cnc4c(N)ncnc43)[C@H](F)[C@@H]2O1` (single isomer, unassigned) [Compound 38a]: the negative logarithm of the EC50 (pEC50) was 7.70. Then `CC(C)(C)C(=O)OCOc1ccc(CSP2(=O)OC[C@H]3O[C@@H](n4cnc5c(N)ncnc54)[C@H](F)[C@@H]3OCP(=O)(O)OC[C@H]3O[C@@H](n4cnc5c(N)ncnc54)[C@H](F)[C@@H]3O2)cc1` (single isomer, unassigned) [Compound 33a], with 6.52; and `CCCCCCCCCCCCCC(=O)OCSP1(=O)OC[C@H]2O[C@@H](n3cnc4c(N)ncnc43)[C@H](F)[C@@H]2OCP(=O)(O)OC[C@H]2O[C@@H](n3cnc4c(N)ncnc43)[C@H](F)[C@@H]2O1` (single isomer, unassigned) [Compound 37a], with 7.40; and `CC(C)(C)C(=O)OCSP1(=O)OC[C@H]2O[C@@H](n3cnc4c(N)ncnc43)[C@H](F)[C@@H]2OCP(=O)(O)OC[C@H]2O[C@@H](n3cnc4c(N)ncnc43)[C@H](F)[C@@H]2O1` (single isomer, unassigned) [Compound 32b], with 6.22. Turning to `CCCCCCCCCCCCOC(=O)OCSP1(=O)OC[C@H]2O[C@@H](n3cnc4c(N)ncnc43)[C@H](F)[C@@H]2OCP(=O)(O)OC[C@H]2O[C@@H](n3cnc4c(N)ncnc43)[C@H](F)[C@@H]2O1` (stereo partly drawn) [Compound 34b, (((2R,3R,3aR,7aR,9R,10R,10aR,15aR)-2,9-bis(6-amino-9H-purin-9-yl)-3,10-difluoro-13-hydroxy-5,13-dioxidodecahydro-2H-difuro[3,2-d:3′,2′-k][1,3,7,10]tetraoxa[2,8]diphosphacyclotridecin-5-yl)thio)methyl dodecyl carbonate], the pEC50 was 7.15.

Take `CCCCCCCCCCCC(=O)OCSP1(=O)OC[C@H]2O[C@@H](n3cnc4c(N)ncnc43)[C@H](F)[C@@H]2OCP(=O)(O)OC[C@H]2O[C@@H](n3cnc4c(N)ncnc43)[C@H](F)[C@@H]2O1` (single isomer, unassigned) [Compound 31b]: the pEC50 is 8.00. For `CCCCCCCCCC(=O)OCSP1(=O)OC[C@H]2O[C@@H](n3cnc4c(N)ncnc43)[C@H](F)[C@@H]2OCP(=O)(O)OC[C@H]2O[C@@H](n3cnc4c(N)ncnc43)[C@H](F)[C@@H]2O1` (single isomer, unassigned) [Compound 36a], the pEC50 is 7.10.

Take `CCCCCCCCCCCCCC(=O)OCSP1(=O)OC[C@H]2O[C@@H](n3cnc4c(N)ncnc43)[C@H](F)[C@@H]2OCP(=O)(O)OC[C@H]2O[C@@H](n3cnc4c(N)ncnc43)[C@H](F)[C@@H]2O1` (single isomer, unassigned) [Compound 37b]: the pEC50 is 7.52. The value for `CCCCCCCCCC(=O)OCSP1(=O)OC[C@H]2O[C@@H](n3cnc4c(N)ncnc43)[C@H](F)[C@@H]2OCP(=O)(O)OC[C@H]2O[C@@H](n3cnc4c(N)ncnc43)[C@H](F)[C@@H]2O1` (single isomer, unassigned) [Compound 36b] was 7.30.

Source of the values: patent US20220143061A1, “3'3'-CYCLIC DINUCLEOTIDES AND PRODRUGS THEREOF” (INSTITUTE OF ORGANIC CHEMISTRY AND BIOCHEMISTRY ASCR, V.V.I., priority 2019, published 2022).
